Laboratory results published in patent US20140249076A1 (AstraZeneca / MedImmune, published 2014).
Numbering of substitutions follows the chain as printed.

Protein sequences, listed by entry. Tags and fused reporters are not part of them. Residues count along the entry.
UniProt Q16602, 23-461, chain 1 of 2: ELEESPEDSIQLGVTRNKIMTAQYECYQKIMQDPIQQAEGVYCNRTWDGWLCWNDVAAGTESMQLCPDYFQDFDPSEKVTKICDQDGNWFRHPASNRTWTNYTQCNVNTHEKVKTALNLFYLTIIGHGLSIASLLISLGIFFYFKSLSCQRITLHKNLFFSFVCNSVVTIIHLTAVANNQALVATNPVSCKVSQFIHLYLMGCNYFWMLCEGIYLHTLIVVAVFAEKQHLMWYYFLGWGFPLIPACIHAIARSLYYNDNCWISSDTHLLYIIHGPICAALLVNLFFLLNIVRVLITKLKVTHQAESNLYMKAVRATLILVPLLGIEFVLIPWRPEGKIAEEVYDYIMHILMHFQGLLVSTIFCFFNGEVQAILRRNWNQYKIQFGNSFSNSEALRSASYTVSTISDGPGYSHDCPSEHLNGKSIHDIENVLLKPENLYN
UniProt O60894, 27-148, chain 2 of 2: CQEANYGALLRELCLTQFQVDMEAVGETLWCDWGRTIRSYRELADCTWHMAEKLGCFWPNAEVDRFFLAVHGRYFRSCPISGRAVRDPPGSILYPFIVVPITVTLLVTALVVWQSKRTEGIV

Key:
[1] = target: T1, amylin receptor (RNA membranes); assay: displacement of 125I-rat amylin from RNA membranes
T1 construct: Membrane preparation
Method: (§1) A variety of receptor binding and functional activity assays were conducted using the peptide conjugates described herein.
Dried glass fiber plates were combined with scintillant and counted on a multi-well Perkin Elmer scintillation counter, as well known in the art.

[2] = target: T2, CGRP receptor (SK-N-MC cell membranes) (UniProt Q16602; O60894, in part); assay: displacement of 125I-human CGRP from SK-N-MC cell membranes
T2 construct: whole, on cells
Method: as §1
Dried glass fiber plates were combined with scintillant and counted on a multiwell Perkin Elmer scintillation counter.

Binder CNTATCVLGRLSQELHRLQTYPRTNVGSNTY (mPEG40KD on the N-terminal nitrogen; C-terminal amide) [Cmpd 151 (mPEG40KD-Cmpd 2)] has an IC50 [1] of 87 nM.

Work on CNTATCVLGRLSQELHRLQTYPRTNVGSNTY (C-terminal amide, also called [desLys^1]-Cmpd 1) [Cmpd 2] yielded an IC50 [2] of 3.8 nM.

B1: Cmpd 156 (Acetyl-[K^21(mPEG40KD)]-Cmpd 2) (peptide)
peptide: CNTATCVLGRLSQELHRLQKYPRTNVGSNTY
modifications: N-terminal acetyl; mPEG40KD on the side-chain amine of Lys 21 (Formula (I)/Cmpd 1 numbering; residue 20 of this chain); C-terminal amide
With B1 the IC50 [1] was 8.4 nM.

B2: Cmpd 169 (Acetyl-[K^26(mPEG40KD)]-Cmpd 2) (peptide)
peptide: B1 peptide with K20T, N25K
modifications: N-terminal acetyl; mPEG40KD on the side-chain amine of Lys 26 (Formula (I)/Cmpd 1 numbering; residue 25 of this chain); C-terminal amide
notes: also called Acetyl-[desK^1, K^26(PEG40 KD)]-Cmpd 1
B2 was tested, and the IC50 [1] was 17 nM.
